# AlphaSeq binding of Ab-14 light chain variants to a spike HR2 peptide

Target peptide (SARS-CoV-2 spike, HR2 region): PDVDLGDISGINAS

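AAYL50 was designed without a model: most single CDR substitutions and a random sample of double and triple ones. The assay is AlphaSeq: two haploid yeast populations carry antibody and antigen on their surface. The frequency of each diploid, read from paired DNA barcodes, reflects how well the two displayed proteins bind. A regression on co-assayed BCL2-family reference pairs converts the normalised counts of each replicate to an apparent Kd. Each pool was mated in three replicate cultures.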

Each scFv is VH, a (GGGGS)3 linker, VL, as in the parent Ab-14, and differs from it in the CDRs of the light chain only.
VH: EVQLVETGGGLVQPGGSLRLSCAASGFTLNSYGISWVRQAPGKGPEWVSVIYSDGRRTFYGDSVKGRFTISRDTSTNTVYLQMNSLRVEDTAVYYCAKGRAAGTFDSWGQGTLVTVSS
VL: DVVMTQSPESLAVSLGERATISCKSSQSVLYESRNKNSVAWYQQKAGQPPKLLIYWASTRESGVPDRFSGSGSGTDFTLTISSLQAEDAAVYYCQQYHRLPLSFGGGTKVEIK

Changes read parent residue, position, new residue, counted from the first residue of the VL shown.
The read-out is the apparent dissociation constant on a log10 scale (nM): the lower, the stronger.
"nd" means that the variant was in the library but no mating with the target was seen in that replicate; the authors take this as a sign of poor binding, and no number exists.

| changes | log10 Kd, replicates | empty controls |
|---|---|---|
| K24N+S25Y+Y97P | nd / nd / 5.06 | 0 of 9 |
| S26M+L30D+S58F | 0.98 / 1.12 / 1.20 | 2 of 9 (4.54) |
| Y31R+A40F+A57E | nd / nd / nd | 1 of 9 (2.52) |
| S26T+L100Y+P101T | nd / nd / nd | 0 of 9 |
| A40K+W56T+S58Y | 5.57 / 3.77 / nd | 1 of 9 (4.36) |
| V39Y+H98C | nd / 3.72 / 4.03 | 6 of 9 (3.83) |
| S26G+E32L+H98N | 3.91 / 3.62 / 3.26 | 1 of 9 (3.35) |
| K24M+S38T+P101K | nd / nd / nd | 0 of 9 |
| Q27D+R34S+T59A | 0.56 / 0.88 / 0.67 | 1 of 9 (3.69) |
| A40K+S62D | nd / 3.39 / nd | 2 of 9 (4.10) |
| V29G+W56I+H98K | 5.21 / 4.35 / 4.13 | 8 of 9 (4.77) |
| V29A+R60V+H98N | 3.47 / 3.61 / 3.30 | 7 of 9 (4.71) |
| E32T+S103C | 1.75 / 1.40 / 1.43 | 0 of 9 |
| V39W+A57L+L100K | 4.83 / nd / nd | 0 of 9 |
| L30F+Y97W+P101E | 4.77 / 4.29 / nd | 1 of 9 (3.70) |
| S25R+R34H+N35L | 1.32 / 1.09 / 1.51 | 0 of 9 |
| S25I+E32C+S58N | 1.37 / 1.61 / 1.58 | 2 of 9 (4.41) |
| Q27V+S33N+Y97I | 0.51 / 0.75 / 0.35 | 1 of 9 (4.22) |
| S25Y+V29P+L102W | 1.96 / 1.43 / 1.55 | 2 of 9 (4.15) |
| E32A+S38Q+S58E | nd / nd / nd | 3 of 9 (3.75) |
| S28K | 1.66 / 1.66 / 1.64 | 5 of 9 (4.27) |
| A57S+T59W+S62R | nd / nd / nd | 1 of 9 (3.29) |
| T59P+R99T+L100T | nd / nd / nd | 4 of 9 (4.50) |
| Q95N+Q96W+Y97L | 3.76 / nd / nd | 1 of 9 (4.91) |
| E32G+S58A+L100Y | nd / nd / nd | 1 of 9 (2.63) |
| V39L+E61L+S62G | nd / nd / nd | 0 of 9 |
| T59H+R99P | 0.85 / 1.11 / 0.75 | 2 of 9 (4.67) |
| K24I+S26Y+N37I | nd / nd / nd | 0 of 9 |
| K24N+S33D+L100C | 1.05 / 0.80 / 0.68 | 2 of 9 (3.66) |
| V29R+T59G+Q96K | 3.21 / nd / nd | 2 of 9 (4.48) |
| S25N+E32R+Q96N | 3.20 / 2.13 / 2.41 | 2 of 9 (4.25) |
| Q27L+A40N | 5.32 / nd / nd | 0 of 9 |
| R34G+E61M+P101M | -0.21 / 0.14 / -0.11 | 1 of 9 (4.26) |
| K36H+H98Q+L102F | 0.81 / 0.93 / 0.97 | 1 of 9 (5.84) |
| S38L+L100Q+P101F | nd / nd / nd | 5 of 9 (4.54) |
| N37Y+Q95M | 0.54 / 0.80 / 0.62 | 2 of 9 (4.00) |
| S62H | 0.78 / 1.00 / 0.93 | 4 of 9 (4.71) |
| L30K+K36Y+R99P | 3.56 / nd / nd | 1 of 9 (4.16) |
| K24I+L30W+L102S | nd / nd / 5.86 | 4 of 9 (4.76) |
| V29A+S38H+H98V | 0.98 / 1.30 / 1.41 | 1 of 9 (3.01) |
| N35G+L102H | nd / 3.73 / nd | 3 of 9 (3.54) |
| A40E+E61G+L100P | nd / nd / nd | 0 of 9 |
| S25L+A57Y | 2.58 / 2.53 / 2.58 | 4 of 9 (3.83) |
| V29C+N35K+S58P | 6.10 / nd / nd | 6 of 9 (4.27) |
| S25H+E32F | 1.60 / 1.66 / 1.79 | 2 of 9 (4.81) |
| S28T+T59Y+Y97W | 2.65 / 2.00 / 1.03 | 0 of 9 |
| S28C+K36G+H98P | 1.98 / 2.51 / 2.31 | 3 of 9 (3.89) |
| S33W+Q95E+L100R | 5.01 / 4.12 / 4.60 | 5 of 9 (4.91) |
| R34N+S38C+E61G | 2.35 / 1.76 / 2.10 | 1 of 9 (4.48) |
| K24F+S28F+H98T | 3.29 / 3.77 / 2.98 | 7 of 9 (4.60) |
| S38D+W56A+S103G | 0.72 / 0.94 / 0.81 | 2 of 9 (4.50) |

The first 5 entries again:

| changes | log10 Kd, replicates | empty controls |
|---|---|---|
| K24N+S25Y+Y97P | nd / nd / 5.06 | 0 of 9 |
| S26M+L30D+S58F | 0.98 / 1.12 / 1.20 | 2 of 9 (4.54) |
| Y31R+A40F+A57E | nd / nd / nd | 1 of 9 (2.52) |
| S26T+L100Y+P101T | nd / nd / nd | 0 of 9 |
| A40K+W56T+S58Y | 5.57 / 3.77 / nd | 1 of 9 (4.36) |

Empty control strains, which show no peptide, gave a signal in 18% of pairings with library AAYL50; the median was 4.19 and 95% of these signals were weaker than 2.99. No background was subtracted. The control count says in how many pairings with the empty strains this scFv gave a signal, with their mean in brackets.
Parent in this assay: reference entry 0.65, copy in this library 1.68.

Reference: Engelhart et al. 2022, doi:10.1038/s41597-022-01779-4. File: FLAb, binding data.